Patent US20140088192A1, “SUBCUTANEOUSLY INFUSIBLE LEVODOPA PRODRUG COMPOSITIONS AND METHODS OF INFUSION” (SynAgile Corporation, priority 2010, published 2014)

Assays:
[1] = Hydrolysis of LDEE salts to LD in aqueous solution, monitored by HPLC; format: physicochemical; conditions: 2.5 M, pH 4.5 citrate, 4 days at 29° C.-30° C.
[2] = Achievable concentration and density of concentrated LDEE salt solutions

CCOC(=O)[C@@H](N)Cc1ccc(O)c(O)c1.Cl [LDEE.HCl, LDEE Hydrochloride]
% of the LDEE.HCl hydrolyzed [1]: 3.4%
density ([2]; 2.6 M LDEE.HCl solution): about 1.17 g/mL
density ([2]; 2.9 M LDEE.HCl solution): about 1.19 g/mL
